scFv variants of Ab-14 (light chain) against a SARS-CoV-2 spike peptide

Data: MIT Lincoln Laboratory AlphaSeq set, Li et al. 2023, doi:10.1038/s41467-023-39022-2, as distributed in FLAb.

Target: peptide PDVDLGDISGINAS, taken from heptad repeat 2 (HR2) of SARS-CoV-2 spike.

Parent: Ab-14, a human scFv built as VH, a (GGGGS)3 linker, VL. Only the CDRs of the light chain vary.
VH: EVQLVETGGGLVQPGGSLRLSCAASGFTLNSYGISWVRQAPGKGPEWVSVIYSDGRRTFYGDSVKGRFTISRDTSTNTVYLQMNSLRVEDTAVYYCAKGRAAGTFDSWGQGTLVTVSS
VL: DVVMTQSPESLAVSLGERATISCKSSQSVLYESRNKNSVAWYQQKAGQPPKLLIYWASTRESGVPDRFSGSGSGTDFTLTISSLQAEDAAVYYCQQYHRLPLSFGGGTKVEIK

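These sequences belong to a second round, designed from the earlier measurements on random variants of the parent. Their group label is 14L_GP_Gibbs (GP: Gaussian process model; Gibbs: Gibbs sampling; a sequence that several methods proposed may carry one label only). The assay is AlphaSeq: two haploid yeast populations carry antibody and antigen on their surface. After mating in shaken culture at 30 °C for 16 h, diploids were selected and their barcode pairs sequenced. The ratio of observed to expected reads was calibrated, replicate by replicate, on BCL2-family standards whose Kd was known from biolayer interferometry. Each pool was mated in six replicate cultures.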

The parent's light chain CDRs are KSSQSVLYESRNKNSVA, WASTRES, QQYHRLPLS; each variant's own CDRs replace them letter for letter. Values are log10 of the apparent Kd in nM; lower means stronger binding.

{"CDR-L1": "KLQQSFLYESRNKMSVA", "CDR-L2": "NASTREE", "CDR-L3": "QQYHRLPLS", "replicates, log10 nM": "0.06 / 0.16 / 0.00 / -0.14 / -0.13 / 0.30", "empty controls": "1/18 (3.32)"}
{"CDR-L1": "KISQEVWYESRNKNSVA", "CDR-L2": "GASQRCS", "CDR-L3": "QQYHRLPLS", "replicates, log10 nM": "-0.03 / -0.23 / -0.35 / -0.26 / -0.38 / -0.30", "empty controls": "0/18"}
{"CDR-L1": "KVQMSWLMSSRMKNQVA", "CDR-L2": "HASMRES", "CDR-L3": "QQYHRLPLS", "replicates, log10 nM": "1.57 / 2.00 / 1.65 / 2.01 / 1.51 / 1.96", "empty controls": "1/18 (3.75)"}
{"CDR-L1": "KVSQSTLYESLMKNSVA", "CDR-L2": "NASVRSS", "CDR-L3": "QQYHRLPLS", "replicates, log10 nM": "0.18 / -0.08 / 0.13 / -0.21 / -0.14 / -0.02", "empty controls": "5/18 (2.81)"}
{"CDR-L1": "KVSLSVLLWSRNANAVA", "CDR-L2": "EASTRES", "CDR-L3": "QQYHRLPLS", "replicates, log10 nM": "1.04 / 0.39 / 0.68 / 1.00 / 1.51 / 0.57", "empty controls": "0/18"}
{"CDR-L1": "KLVPSELYESRQSNSVA", "CDR-L2": "NASLRES", "CDR-L3": "QQYHRLPLS", "replicates, log10 nM": "0.30 / 0.03 / 0.12 / -0.22 / -0.01 / 0.28", "empty controls": "0/18"}
{"CDR-L1": "KLSQSGLYGMRNKNSVA", "CDR-L2": "QASQRLS", "CDR-L3": "QQYHRLPLS", "replicates, log10 nM": "0.26 / 0.33 / 0.39 / 0.31 / 0.56 / 0.37", "empty controls": "0/18"}
{"CDR-L1": "KLEWSDLLESRNKQSVA", "CDR-L2": "NASQRER", "CDR-L3": "QQYHRLPLS", "replicates, log10 nM": "-0.04 / -0.22 / -0.11 / -0.16 / -0.25 / -0.09", "empty controls": "1/18 (2.55)"}
{"CDR-L1": "KLMGSQQYESRWKNAVA", "CDR-L2": "EASTRES", "CDR-L3": "QQYHRLPLS", "replicates, log10 nM": "0.71 / 0.56 / 0.33 / 0.22 / 0.41 / 0.51", "empty controls": "0/18"}
{"CDR-L1": "KVSQGELYESRNANNVA", "CDR-L2": "NASQREN", "CDR-L3": "QQYHRLPLS", "replicates, log10 nM": "-0.86 / -0.54 / -0.57 / -0.91 / -0.72 / -0.53", "empty controls": "0/18"}
{"CDR-L1": "KMSQSWLYEQRNVNSVA", "CDR-L2": "NASKRLL", "CDR-L3": "QQYHRLPLS", "replicates, log10 nM": "0.04 / -0.04 / -0.13 / -0.26 / -0.31 / -0.12", "empty controls": "0/18"}
{"CDR-L1": "KLSQGWLYESRNCNQVA", "CDR-L2": "NASQREE", "CDR-L3": "QQYHRLPLS", "replicates, log10 nM": "0.46 / 0.28 / 0.34 / 0.19 / 0.37 / 0.30", "empty controls": "4/18 (3.06)"}
{"CDR-L1": "KLNQSVGYEQRNKNSVA", "CDR-L2": "EASTRED", "CDR-L3": "QQYHRLPLS", "replicates, log10 nM": "0.53 / 1.20 / -0.41 / -0.13 / 0.18 / 1.10", "empty controls": "0/18"}
{"CDR-L1": "KLSQSDEYQSRNKNSVA", "CDR-L2": "NASTRYS", "CDR-L3": "QQYHRLPLS", "replicates, log10 nM": "-0.10 / -0.25 / -0.33 / -0.48 / -0.51 / -0.28", "empty controls": "0/18"}
{"CDR-L1": "KVSQMWLYESRNCNSVA", "CDR-L2": "NASQREE", "CDR-L3": "QQYHRLPLS", "replicates, log10 nM": "0.24 / 0.41 / 0.32 / -0.06 / 0.30 / 0.69", "empty controls": "1/18 (2.87)"}
{"CDR-L1": "KLSQSWLYEARNSNSVA", "CDR-L2": "NASQRED", "CDR-L3": "QQYHRLPLS", "replicates, log10 nM": "0.26 / 0.57 / 0.32 / 0.22 / 0.51 / 0.46", "empty controls": "1/18 (2.07)"}
{"CDR-L1": "KMSQLNLYEWRNFNSVA", "CDR-L2": "NASYRES", "CDR-L3": "QQYHRLPLS", "replicates, log10 nM": "1.45 / 1.05 / 0.53 / 0.56 / 0.93 / 1.10", "empty controls": "2/18 (2.48)"}
{"CDR-L1": "FLEQSELYESRMKNSVA", "CDR-L2": "NASTRCS", "CDR-L3": "QQYHRLPLS", "replicates, log10 nM": "1.30 / 0.65 / 0.89 / 0.75 / 1.07 / 1.06", "empty controls": "1/18 (2.80)"}
{"CDR-L1": "KVSISWLMESRNKNQVA", "CDR-L2": "HASTRMS", "CDR-L3": "QQYHRLPLS", "replicates, log10 nM": "1.63 / 2.31 / 1.81 / 1.41 / 1.51 / 1.58", "empty controls": "0/18"}
{"CDR-L1": "KLMQSMGYESRNFNSVA", "CDR-L2": "QASTRSS", "CDR-L3": "QQYHRLPLS", "replicates, log10 nM": "0.75 / 0.93 / 1.08 / 0.84 / 1.05 / 1.05", "empty controls": "1/18 (3.28)"}

Background: pairings of all light chain designs with three empty control strains gave a value in 4% of cases (median 2.64, 5th percentile 1.59). Values in that range, when seen in few replicates, are hard to tell from nonspecific mating. The control count says in how many pairings with the empty strains this scFv gave a signal, with their mean in brackets. The authors averaged sequences with at least three values out of six and counted those with two or fewer as poor binders. The range of this assay differs from that of the first round, and the authors advise against merging the two.